Data published in PubChem BioAssay AID651582 (Sanford-Burnham Center for Chemical Genomics, 2012).
The list shows a part of the results, in another mix than the full data. The source made the active and inactive calls.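 The calls were made as follows: active = pattern-corrected inhibition of lipid staining of at least 50% with the nuclear-stain viability signal not falling by more than 50%; inactive = the rest, inconclusive results apart.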

Assay: inhibitors of triacylglycerol accumulation, primary screen, cell-based, uHTS, fluorescence, H9c2 (AID 651582);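 also: 0% = DMSO wells and 100% = triacsin C control wells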
Details: H9c2 cells, Nile Red lipid (TAG) fluorescence; at 12.5 µM; hits give high values; cells loaded with 200 µM oleic acid

Row | SMILES | inhibition
1 | O=[N+]([O-])c1cc([N+](=O)[O-])c(Nc2cccnc2)c([N+](=O)[O-])c1 | inactive: 7.89%
2 | O=[As](O)(c1ccc(O)cc1)c1ccccc1O | inactive: 2.39%
3 | COc1cc(C(=O)NCC2(N3CCOCC3)CCCCC2)ccc1OCC(C)C | inactive: 3.65%
4 | O=[N+]([O-])c1ccc(-c2cc([N+](=O)[O-])c(O)c([N+](=O)[O-])c2)cc1 | inactive: 1.09%
5 | Cc1cccc(C)c1OP(C)(N)=O (stereo not given) | inactive: 9.31%
6 | Cc1ccc2nc3c(c(C)c2c1)CC(C(Cl)Cl)S3 (stereo not given) | inactive: -5.17%
7 | O=[N+]([O-])c1ccc2c(c1)C=Nc1ccccc1O2 | inactive: -8.75%
8 | ClCCSc1nnc(-c2cccnc2)o1 | inactive: 22.1%
9 | CC(C)c1ccc(OP(=O)(Nc2ccccn2)Oc2ccccc2F)cc1 (stereo not given) | inactive: -37.9%
10 | Cc1ccc(NP(C)(=O)Oc2ccccc2)c(C)c1 (stereo not given) | inactive: -93.7%
11 | COC(=O)C1(C)COP(=O)(N2CCCCCC2)OC1 (stereo not given) | inactive: -3.22%
12 | O=C(OC1CN2CCC1CC2)c1cccc2[nH]cnc12 (stereo not given) | inactive: -0.447%
13 | CCN(CC)C(=S)SC(NC=O)C(Cl)(Cl)Cl (stereo not given) | inactive: 94.4%
14 | COc1ccccc1OP(C)(=O)Nc1cc(Cl)ccc1C (stereo not given) | inactive: -51.4%
15 | O=[N+]([O-])c1cc([N+](=O)[O-])c(-c2ccn[nH]2)s1 | inactive: 1.1%
16 | COc1ccc(OP(C)(=O)Nc2cccc(F)c2)cc1 (stereo not given) | inactive: -21.6%
17 | Cc1cc(C)cc(OP(C)(N)=O)c1 (stereo not given) | inactive: 0.187%
18 | Cc1c2c(nc3ccccc13)SC(C(Cl)Cl)C2 (stereo not given) | inactive: -9.97%
19 | O=C(OC1CN2CCC1CC2)C12CC3CC(CC(C3)C1)C2 (stereo not given) | inactive: 11.7%
20 | CCN(CC)CCCOC(=O)C(O)(c1ccccc1)c1ccccc1 | inactive: 4.35%

Row | SMILES | inhibition
21 | O=P1(N(CCCl)CCCl)OCCCN1CCCl (stereo not given) | inactive: -12.6%
22 | O=P1(N(CCCl)CCCl)Nc2ccccc2N1 | inactive: 9.4%
23 | COc1ccc2nc(NP(=O)(c3ccccc3)c3ccccc3)sc2c1 | inactive: -9.91%
24 | COc1cc(I)ccc1[As](=O)(O)O | inactive: 8.88%
25 | O=[N+]([O-])c1cc(Oc2ccc([N+](=O)[O-])cc2C(F)(F)F)cc([N+](=O)[O-])c1 | inactive: 0.838%
26 | COc1ccc(N/C(=N/P(=O)(N2CCOCC2)N2CCOCC2)N2CCOCC2)cc1 | inactive: 5.9%
27 | Cc1ccc(Nc2c([N+](=O)[O-])cc([N+](=O)[O-])cc2[N+](=O)[O-])cc1 | inactive: 6.24%
28 | CP(=O)(Nc1ccc(SC(F)(F)F)cc1)Oc1ccc(Cl)cc1 (stereo not given) | inactive: -43.1%
29 | CP(=O)(Oc1ccccc1)OC(c1ccccc1)C(F)(F)F (stereo not given) | inactive: -19%
30 | CCc1ccc(OP(C)(=O)N2CCN(c3ccc([N+](=O)[O-])cc3)CC2)cc1 (stereo not given) | inactive: -30.2%
31 | O=C(COc1ccccc1)OC1CN2CCC1CC2 (stereo not given) | inactive: -20.6%
32 | CCOP(C)(=S)SCC(=O)NC(C)C(=O)O (stereo not given) | inactive: 1.51%
33 | CSc1ccc(Nc2c([N+](=O)[O-])cc([N+](=O)[O-])cc2[N+](=O)[O-])cc1 | inactive: -6.33%
34 | CCOC(=O)c1ccc(NC(=O)C(C)(CCl)SC)cc1 (stereo not given) | inactive: 5.34%
35 | O=[N+]([O-])c1cc([N+](=O)[O-])c(O)c([N+](=O)[O-])c1.c1ccc(Oc2ccncc2)cc1 | inactive: 6.32%
36 | CCOC(=O)Nc1ccc([As](=O)(O)O)c(O)c1 | inactive: 3.05%
37 | O=C(O)C(=O)c1ccc(N(CCCl)CCCl)cc1.c1ccc(Nc2ccccc2)cc1 | inactive: 1.51%
38 | CC1CCNP(=O)(N(CCCl)CCCl)O1 (stereo not given) | inactive: -32.5%
39 | COP(=O)(OC)N1CC1c1ccccc1 (stereo not given) | inactive: -4.19%
40 | CP(=S)(Nn1cnnc1)Oc1ccccc1 (stereo not given) | inactive: 7.31%

Row | SMILES | inhibition
41 | O=P(Nc1ccccn1)(c1cccc2ccccc12)c1cccc2ccccc12 | inactive: -3.11%
42 | Cc1cc(SC(NC=O)C(Cl)(Cl)Cl)ncn1 (stereo not given) | inactive: 0.977%
43 | COc1ccccc1OP(C)(=O)Nc1ccccc1 (stereo not given) | inactive: -11%
44 | CC1CCC(C(C)C)C(OP(=O)(Nc2ccccn2)c2ccccc2)C1 (stereo not given) | inactive: -11.8%
45 | CN(C)C1(CNC(=O)c2ccc(S(C)(=O)=O)cc2)CCCCC1 | inactive: 3.73%
46 | CC1=C2N=C(C=C3N=C(C(C)=C4[N-][C@@](C)([C@@H]5N=C1[C@](C)(CCC(=O)NC[C@@H](C)OP(=O)([O-])O[C@H]1[C@@H](O)[C@@H](n6cnc7cc(C)c(C)cc76)O[C@@H]1CO)[C@H]5CC(N)=O)[C@@](C)(CC(N)=O)[C@@H]4CCC(N)=O)[C@@](C)(CC(N)=O)[C@@H]3CCC(N)=O)C(C)(C)[C@@H]2CCC(N)=O.[C-]#N.[Co+3] | inactive: -0.839%
47 | CCOC(=O)C(CC)C1=NC(C)(C)Cc2ccccc21.O=[N+]([O-])c1cc([N+](=O)[O-])c(O)c([N+](=O)[O-])c1 (stereo not given) | inactive: 0.396%
48 | O=C(/C=C/c1ccccc1)OC1CN2CCC1CC2 (stereo not given) | inactive: 8.73%
49 | CCCC1OP(=O)(Nc2ccccc2)OCC1CC (stereo not given) | inactive: -7.21%
50 | O=P1(Nc2ncccn2)COc2ccccc2OC1 | inactive: 6.19%
51 | COc1ccccc1OP(C)(=O)Nc1c(C)cccc1C (stereo not given) | inactive: -45%
52 | CN1CCCCC1COC(=O)C1(O)c2ccccc2CCc2ccccc21 (stereo not given) | inactive: 17.2%
53 | Nc1cccc([As](=O)(O)c2ccccc2)c1 | inactive: -3.55%
54 | CCCOc1ccc(NP(C)(=O)Oc2ccc(Cl)cc2)cc1 (stereo not given) | inactive: -45.3%
55 | O=P1(Nc2ccc(Br)cn2)COc2ccccc2OC1 | inactive: -6.4%
56 | NS(=O)(=O)c1cccc(NC(=O)COC(=O)C(O)(c2ccccc2)c2ccccc2)c1 | inactive: 7.55%
57 | Cc1ccc(OCC(=O)OC2CN3CCC2CC3)cc1 (stereo not given) | inactive: 0.78%
58 | O=C(O)C(O)c1ccc(N(CCCl)CCCl)cc1.c1ccncc1 (stereo not given) | inactive: 9.31%
59 | O=P1(Nc2ccccn2)COc2ccccc2OC1 | inactive: -10.2%
60 | O=[N+]([O-])c1cc([N+](=O)[O-])c(-n2nnc3ccccc32)c([N+](=O)[O-])c1 | inactive: -1.57%
